Tests used:
[1] = molecular target: soluble, human recombinant NEP (Homo sapiens, UniProt P08473); assay: In-vitro investigation of the NEP inhibitory action (fluorescence-quenched Big-ET-1 analogue, HPLC); settings: read-out: IC50 (NEP)
Protocol: 1. In-Vitro Investigation of the NEP Inhibitory Action of the Substances
In this test, the measure of the inhibitory activity of the substances which was determined was their IC50 value. The IC50 value of a test substance having enzyme-inhibitory activity is that concentration of the test substance at which 50% of the enzymatic activity of the NEP is blocked.
70 μl test buffer, 10 μl enzyme working solution and 10 μl test substance solution were mixed in an Eppendorf vessel and preincubated at 37° C. for 15 minutes (=min.). Then 10 μl substrate stock solution was added and the test batch was incubated for 60 minutes at 37° C. The enzymatic reaction was then ended by 5-minutes' heating to 95° C. […]
All the peptides were detected by absorption at 214 nm and by fluorescence with an excitation wavelength of 328 nm and an emission wavelength of 393 nm.
Upon enzymatic cleavage of the peptide, the fluorophore (=Mca) and the quencher end up in different peptide fragments, which reduces the effectiveness of the quench. […] The increasing fluorescence signal (corresponds to the area, A) of the HPLC peak of the peptide with the non-quenched Mca fluorophore is used for the further calculations. […]
All the samples were measured in duplicates and average values were calculated therefrom. […]

The chains behind the UniProt entries cited, without tags or fusion partners. Residues count along the entry.
UniProt P08473, 52-750 limits assumed: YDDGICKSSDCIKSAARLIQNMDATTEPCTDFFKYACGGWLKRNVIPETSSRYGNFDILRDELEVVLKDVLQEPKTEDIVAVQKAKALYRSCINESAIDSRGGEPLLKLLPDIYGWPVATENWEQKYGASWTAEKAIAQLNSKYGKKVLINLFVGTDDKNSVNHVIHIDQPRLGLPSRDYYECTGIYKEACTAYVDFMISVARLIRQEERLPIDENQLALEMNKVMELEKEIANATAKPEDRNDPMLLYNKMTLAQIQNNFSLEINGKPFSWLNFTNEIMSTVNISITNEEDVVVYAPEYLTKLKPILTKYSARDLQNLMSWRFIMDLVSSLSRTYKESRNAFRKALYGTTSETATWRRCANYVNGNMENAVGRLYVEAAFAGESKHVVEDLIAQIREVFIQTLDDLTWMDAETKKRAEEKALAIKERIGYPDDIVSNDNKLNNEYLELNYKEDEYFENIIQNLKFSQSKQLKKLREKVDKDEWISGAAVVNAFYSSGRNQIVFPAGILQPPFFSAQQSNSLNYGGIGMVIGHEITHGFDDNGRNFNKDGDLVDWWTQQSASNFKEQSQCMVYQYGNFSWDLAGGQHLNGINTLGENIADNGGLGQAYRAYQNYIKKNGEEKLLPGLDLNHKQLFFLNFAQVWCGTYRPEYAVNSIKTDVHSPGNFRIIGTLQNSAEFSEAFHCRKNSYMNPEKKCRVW
UniProt Q495T6, 49-779 limits assumed: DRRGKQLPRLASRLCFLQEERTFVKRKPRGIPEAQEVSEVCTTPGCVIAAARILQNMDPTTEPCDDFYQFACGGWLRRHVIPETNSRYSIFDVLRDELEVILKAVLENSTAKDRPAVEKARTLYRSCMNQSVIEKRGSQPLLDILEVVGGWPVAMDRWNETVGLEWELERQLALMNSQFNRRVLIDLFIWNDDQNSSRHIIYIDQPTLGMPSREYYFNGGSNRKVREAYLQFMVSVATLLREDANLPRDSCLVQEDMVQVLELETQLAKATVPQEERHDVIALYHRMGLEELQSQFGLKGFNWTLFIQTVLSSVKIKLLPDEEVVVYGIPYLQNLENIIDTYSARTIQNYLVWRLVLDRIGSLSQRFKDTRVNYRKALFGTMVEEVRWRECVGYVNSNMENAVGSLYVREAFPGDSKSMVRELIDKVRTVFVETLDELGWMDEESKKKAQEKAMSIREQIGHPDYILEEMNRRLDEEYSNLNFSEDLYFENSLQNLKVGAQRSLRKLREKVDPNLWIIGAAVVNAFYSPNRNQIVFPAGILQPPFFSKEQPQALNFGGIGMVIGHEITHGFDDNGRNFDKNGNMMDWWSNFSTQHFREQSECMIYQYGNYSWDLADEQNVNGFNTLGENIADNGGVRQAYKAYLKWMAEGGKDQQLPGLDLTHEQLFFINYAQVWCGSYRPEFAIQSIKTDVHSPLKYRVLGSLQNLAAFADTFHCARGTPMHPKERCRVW

[2] = molecular target: His6-tagged hSEP ectodomain (Homo sapiens, UniProt Q495T6); assay: In vitro investigation of the hSEP-inhibitory action (fluorescence-quenched Big-ET-1 analogue, HPLC); settings: read-out: IC50 (hSEP)
Protocol: 2. In Vitro Investigation of the hSEP-Inhibitory Action of the Substances
In this test, the measure of the inhibitory activity of the substances which was determined was their IC50 value. The IC50 value of a test substance having enzyme-inhibitory activity is that concentration of the test substance at which 50% of the enzymatic activity of the hSEP is blocked.
The test and the HPLC procedure were carried out analogously to the manner set forth above for determining the in vitro inhibitory action of the test substances on NEP. 10 nM phosphoramidon served as standard inhibitor in the HPLC procedure. In this test model the test substances of Formula I listed in the following Table 2 had the IC50 values given below: […]

IC50 [1]: 15.5 nM
IC50 [2]: 3.4 nM
SMILES: COc1ccc(CCNC(=O)CC(CC2(C(=O)N[C@H]3CCc4ccccc4N(CC(=O)O)C3=O)CCCC2)C(=O)O)cc1 (some centres unmarked)

— patent US20080085889A1, “Amidomethyl-Substituted 1-(Carboxyalkyl) Cyclopentyl-Carbonylamino-Benzazepine-N-Acetic Acid Compounds, Process and Intermediate Products for Their Preparation and Pharmaceutical Compositions Containing Them” (SOLVAY PHARMACEUTICALS GmbH, priority 2003, published 2008)
